Laboratory results: ChEMBL document CHEMBL1649094, “First Selective CYP11B1 Inhibitors for the Treatment of Cortisol-Dependent Diseases” (ACS Med Chem Lett, 2011)

Assays:
[1] = target: T1, Cytochrome P450 11B2, mitochondrial (Homo sapiens, UniProt P19099); experiment: Inhibition of human CYP11B2 expressed in hamster V79MZ cells using 11-deoxycorticosterone substrate; format: cell-based
T1 sequence (P19099 whole entry): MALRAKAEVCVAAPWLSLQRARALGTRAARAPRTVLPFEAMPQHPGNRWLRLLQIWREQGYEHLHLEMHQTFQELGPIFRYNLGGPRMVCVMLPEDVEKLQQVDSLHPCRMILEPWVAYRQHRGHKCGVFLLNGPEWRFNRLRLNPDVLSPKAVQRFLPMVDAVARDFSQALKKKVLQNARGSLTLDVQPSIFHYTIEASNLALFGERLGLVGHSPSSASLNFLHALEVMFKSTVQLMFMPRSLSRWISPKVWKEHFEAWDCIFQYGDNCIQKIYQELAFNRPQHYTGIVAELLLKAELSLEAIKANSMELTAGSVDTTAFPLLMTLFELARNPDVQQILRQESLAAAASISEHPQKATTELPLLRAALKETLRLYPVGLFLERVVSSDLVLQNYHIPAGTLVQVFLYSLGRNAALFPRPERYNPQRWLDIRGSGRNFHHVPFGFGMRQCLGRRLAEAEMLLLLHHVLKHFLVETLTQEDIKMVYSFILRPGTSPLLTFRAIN

Homo sapiens = species: Homo sapiens; experiment: Selectivity index, ratio of IC50 for human CYP11B2 to IC50 for human CYP11B1

IC50 [1] | Ratio IC50 (Homo sapiens) | Compound
72 nM |  | CC(C)(C(=O)c1cccnc1)c1cccnc1 [METYRAPONE]
 | 9 | c1ccc2c(c1)ncn2CC12CC3CC(CC(C3)C1)C2
